The values below are quoted from earlier work in US7858597B2, “Preparation of formulations of angiotensin II AT1 receptors antagonists for the treatment of arterial hypertension, other cardiovascular illnesses and its complications” (Universidade Federal De Mimas Gerais - UFMG, priority 2001, dated 2010).

For the data set the following is noted: Captopril associated to polymer (PVP) in tablets; increased from 4; cited from earlier work.

The structures appear in SMILES notation.

Take `C[C@H](CS)C(=O)N1CCC[C@H]1C(=O)O` [Captopril]: the drug permanence is 16 h.
